Test results reported in US10568926B2, “Use of des-aspartate-angiotensin I to treat patients exhibiting malignant growth, invasive growth, tumor, tumor metastasis or cancer” (dated 2020).

System: half sulfur mustard-inoculated Balb/c mice
Assay: Survival of half sulfur mustard-inoculated mice

Row | Compound | effect on survival of HSM-intoxicated mice (losartan alone, 0.5 nmole/kg) | effect on mortality of half sulfur mustard-inoculated mice (various oral doses daily for 14 days)
1 | CCCCc1nc(Cl)c(CO)n1Cc1ccc(-c2ccccc2-c2nn[nH]n2)cc1 | had no effect | –
2 | des-aspartate-angiotensin I | – | dose-dependently attenuated the mortality
